According to US20190307740A1, “COMPOSITIONS AND METHODS FOR TREATMENT RELATED TO FALL AND FALL FREQUENCY IN NEURODEGENERATIVE DISEASES” (Neurocea, LLC, priority 2016, published 2019):

Test system: 1-methyl-4-phenyl-1,2,3,6-tetrahydropyridine (MPTP) monkeys
Assay: LIDs in MPTP parkinsonian monkeys
Conditions: for persistence of LID reduction, tolerance: parkinsonian monkeys

Row | SMILES | decline (maximal decrease) in LIDs in parkinsonian monkeys | effect on LIDs in parkinsonian monkeys (monkey, in vivo) | Side effects in monkeys (monkey, in vivo) | persistence of LID reduction, tolerance | side effects (emesis, nausea) in parkinsonian monkeys
1 | O=C(c1ccc(Cl)o1)N1CC2CNCC2C1 (centres unmarked) [AZD1446] | 30% | appear less efficacious | – | – | –
2 | c1cnc2cc3c(cc2n1)[C@@H]1CNC[C@H]3C1 [Varenicline] | ~50% | appear less efficacious | Some | no tolerance | –
3 | Clc1cc(N2C[C@@H]3CN[C@@H]3C2)cnc1Cl [ABT-894] | up to 60% | greatest reduction in LIDs | – | persisted for months | no detectable side effects and no emesis
4 | Cc1ncccc1OC[C@@H]1CCCN1 [ABT-089] | 40% | appear less efficacious | – | persisted for months | no detectable side effects and no emesis
